The test system of one experiment is DEK. As to the kind of experiment: Western blot of DEK protein levels in prostate, breast and gastric cancer cells, 24 hours, two doses. The note with it: prostate cancer cells (LNCaP and PC3), doses giving approximately 40% and 70% growth inhibition.
The test system of a further experiment is SRC3. Description: Western blot of SRC3 protein levels in prostate, breast and gastric cancer cells, 24 hours, two doses. The settings on record: prostate cancer cells (LNCaP and PC3), doses giving approximately 40% and 70% growth inhibition.

Regarding `C[C@]12O[C@H](C[C@]1(O)CO)n1c3ccccc3c3c4c(c5c6ccccc6n2c5c31)CNC4=O` [lestaurtinib], in the experiment on DEK, the DEK protein levels entry is “no obvious changes”. In addition, the SRC3 protein levels result in the experiment on SRC3 is on record as “decreased in the higher dose treated cells”.

Source of the values: patent US10449202B2, “Rationale-based design of a targeted therapy for cancer” (priority 2013, dated 2019).
